From PubChem BioAssay AID493036 (Sanford-Burnham Center for Chemical Genomics, 2011)
This is a selection; strong and weak results do not stand in their true shares. Active and inactive are the calls of the source.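 Rule for the calls: active = activation at or above 40% of the spot to cytoplasm intensity ratio, with at least 20 cells analyzed; inconclusive = wells under 20 cells, flagged as cytotoxic or low count; inactive = the rest.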

Chains of the proteins cited; added tags and fusions are not shown.
UniProt P30989, whole entry: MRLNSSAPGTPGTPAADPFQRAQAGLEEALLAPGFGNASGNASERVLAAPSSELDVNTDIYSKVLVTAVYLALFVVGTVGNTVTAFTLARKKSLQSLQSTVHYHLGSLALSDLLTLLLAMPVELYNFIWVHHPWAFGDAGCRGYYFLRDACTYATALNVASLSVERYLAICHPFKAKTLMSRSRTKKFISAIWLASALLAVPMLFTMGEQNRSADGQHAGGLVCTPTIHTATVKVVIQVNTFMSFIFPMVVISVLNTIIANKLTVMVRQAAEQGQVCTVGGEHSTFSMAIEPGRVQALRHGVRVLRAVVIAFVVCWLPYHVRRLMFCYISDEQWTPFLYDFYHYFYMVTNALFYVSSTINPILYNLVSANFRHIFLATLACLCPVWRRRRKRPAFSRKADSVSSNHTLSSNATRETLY

The compounds below were run against Neurotensin receptor type 1 (Homo sapiens) (UniProt P30989) (assay: NTR1-driven beta-arrestin-GFP spot formation – imaging, U2OS cells, high content, primary screen (AID 493036;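 note: 0% = DMSO without peptide and 100% = 100 nM NTR1 peptide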) (AID 493036)). Conditions: agonist mode, at 20 µM, hits give high values.

Row | Compound | activation
1 | COc1cc(C(=O)NCC2(N3CCOCC3)CCCCC2)ccc1OCC(C)C | inactive: 0.4%
2 | C[As](=O)(O)c1cccc(C(=O)O)c1 | inactive: -1.1%
3 | O=[As](O)(c1ccc(O)cc1)c1ccccc1O | inactive: 1%
4 | O=[N+]([O-])c1cc([N+](=O)[O-])c(-c2ccn[nH]2)s1 | inactive: 1.6%
5 | COc1ccc(OP(C)(=O)Nc2cccc(F)c2)cc1 (stereo not given) | inactive: -0.7%
6 | CCN(CC)C(=S)SC(NC=O)C(Cl)(Cl)Cl (stereo not given) | inactive: 1.2%
7 | O=C(OC1CN2CCC1CC2)c1cccc2[nH]cnc12 (stereo not given) | inactive: 0.6%
8 | COc1ccccc1OP(C)(=O)Nc1cc(Cl)ccc1C (stereo not given) | inactive: 1.6%
9 | CC(C)NC(=O)NP(=O)(Oc1ccccc1)Oc1ccccc1 | inactive: -0.5%
10 | Cc1cc(C)cc(OP(C)(N)=O)c1 (stereo not given) | inactive: -2.3%
11 | ClCCSc1nnc(-c2cccnc2)o1 | inactive: -0.4%
12 | CCOC(=O)c1ccc(NP(C)(=O)Oc2ccccc2)cc1 (stereo not given) | inactive: 1.5%
13 | Cc1ccc(NP(C)(=O)Oc2ccccc2)c(C)c1 (stereo not given) | inactive: -2.5%
14 | CC(C)c1ccc(OP(=O)(Nc2ccccn2)Oc2ccccc2F)cc1 (stereo not given) | inactive: 3.8%
15 | COc1ccccc1OP(C)(=O)Nc1ccc(C)cc1 (stereo not given) | inactive: 0%
16 | Cc1cc(SC(NC(=O)c2ccccc2)C(Cl)(Cl)Cl)nc(C(C)C)n1 (stereo not given) | inactive: -0.2%
17 | CCCCOc1ccc(C(=O)NCC2(N3CCCCC3)CCCCC2)cc1OC | inactive: -0.5%
18 | CCOC(=O)Nc1ccc([As](=O)(O)O)c(O)c1 | inactive: -0.6%
19 | COc1ccccc1OP(C)(=O)Nc1ccccc1 (stereo not given) | inactive: -0.9%
20 | O=P(Nc1ccccn1)(c1cccc2ccccc12)c1cccc2ccccc12 | inactive: 2%

Row | Compound | activation
21 | Cc1cc(SC(NC=O)C(Cl)(Cl)Cl)ncn1 (stereo not given) | inactive: -1.1%
22 | CP(=O)(Nc1ccccc1Br)Oc1ccccc1 (stereo not given) | inactive: -0.4%
23 | CP(=S)(Nn1cnnc1)Oc1ccccc1 (stereo not given) | inactive: -0.2%
24 | CCOC(=O)Nc1cccc([As](=O)(O)O)c1 | inactive: 0%
25 | O=C(Nc1ccncc1[N+](=O)[O-])c1ccc([N+](=O)[O-])cc1[N+](=O)[O-] | inactive: -0.2%
26 | Cc1cc(C)cc(OP(C)(=O)Nc2ccc(SC(F)(F)F)cc2)c1 (stereo not given) | inactive: 11.2%
27 | CCc1ccc(OP(C)(=O)N2CCN(c3ccc([N+](=O)[O-])cc3)CC2)cc1 (stereo not given) | inactive: 0.7%
28 | O=C(COc1ccccc1)OC1CN2CCC1CC2 (stereo not given) | inactive: -2.5%
29 | CP(=O)(NC(=O)Nc1ccccc1)Oc1ccccc1 (stereo not given) | inactive: 0.8%
30 | CP(=O)(Oc1ccccc1)OC(c1ccccc1)C(F)(F)F (stereo not given) | inactive: -0.9%
31 | Cc1cccc(C)c1OP(C)(=O)Nc1ccc(SC(F)(F)F)cc1 (stereo not given) | inactive: 29%
32 | CP(=O)(Nc1ccc(SC(F)(F)F)cc1)Oc1ccc(Cl)cc1 (stereo not given) | inactive: 2.4%
33 | COP1(=S)c2c(C)nn(CCC#N)c2N=C(c2ccc(F)cc2)N1C (stereo not given) | inactive: 0.8%
34 | CCC(C)N(CC(C)C)C(=S)SC(NC(C)=O)C(Cl)(Cl)Cl (stereo not given) | inactive: -0.7%
35 | CP(=O)(Nc1ccccn1)Oc1ccc(Cl)cc1 (stereo not given) | inactive: -1.1%
36 | O=C(OC1CN2CCC1CC2)c1cccc([N+](=O)[O-])c1 (stereo not given) | inactive: -1.2%
37 | CCOP(C)(=S)SCC(=O)NC(C)C(=O)O (stereo not given) | inactive: 0.3%
38 | CCOC(=O)c1ccc(NC(=O)C(C)(CCl)SC)cc1 (stereo not given) | inactive: 1.2%
39 | CCOC(=O)c1ccc(NP(C)(=O)Oc2ccc(OC)cc2)cc1 (stereo not given) | inactive: 1%
40 | O=[N+]([O-])c1cc([N+](=O)[O-])c(O)c([N+](=O)[O-])c1.c1ccc(Oc2ccncc2)cc1 | inactive: -0.2%
